Compounds with a hit are over-represented: about 13% of the library has one in this group of screens.
Lamin A splicing – modulators of lamin A splicing; Potency, µM (titrated, usually from 46.1 µM), inactives show at the top dose ratio change, negative = inhibition, actives largely listed as inhibitors; HeLa LMNA splicing GFP/RFP minigene ratio, 48 h; actives 0.01% (n = 200,000); active = well fitted inhibition curve with a large enough effect in the signal ratio, with a control signal flat, not every such curve was filed as active; inconclusive = small, poorly fitted or top-dose-only effect, or effect the other way, or a change in a side signal; the % refers to the signal ratio; also: potency is read from the fitted curve at half-maximal effect; % is scaled to controls: 0 for no effect and ±100 for the full control effect
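Read-out is the ratio of GFP to DsRed2 object intensity, acquired by 488 nm laser-scanning cytometry on HeLa lamin A-EGFP minigene reporter cells. Compound incubation 48 hrs at 37 °C in Opti-MEM with 2% FBS; DMSO 0.5% final.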
G9a block – G9a (human) methyltransferase inhibition; Potency, µM (series often up to 102 µM), for inactives: at the top dose activity, negative = inhibition, usual class: inhibitors; actives 8.8% (n = 350,000); G9a H3K9 monomethylation, AlphaScreen, 2 h; Q96KQ7; AID 504332; also: potency is read from the fitted curve at half-maximal effect; % is scaled to controls: 0 for no effect and ±100 for the full control effect; nearly all actives have a fitted effect of over 75% in size
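Chemiluminescent proximity detection of H3K9 monomethylation, read after 10 min bead incubation in the dark. Reaction: 20 nM G9a, 500 nM biotin-H3K9 peptide, 20 uM SAM cofactor, 2 h, room temperature, following 15 min enzyme-compound preincubation.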
JMJD2E inh – blocks human JMJD2E demethylase activity. B2RXH2. JMJD2E catalytic domain, FDH-coupled NADH fluorescence (FDH is formaldehyde dehydrogenase). Potency, µM (doses to about 57.1 µM), inactives show at the highest dose activity change, negative = inhibition, actives largely listed as inhibitors. actives 1.6% (n = 230,000); active = well fitted inhibition curve with a large enough effect, not every such curve was filed as active; inconclusive = small, poorly fitted or top-dose-only effect, or another doubt; inactive = no such curve, though single readings can be large or run the other way;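 also: potency is read from the fitted curve at half-maximal effect; 0% = wells with enzyme and -100% = buffer wells without enzyme; nearly all actives have a fitted effect of over 50% in size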
miR-21 reporter – raises the signal of a miR-21 reporter; AID 2288; 340,000 tested, under 10 active; Potency, µM (doses to about 38.3 µM), inactives show at the top dose reporter change, positive = more light; HeLa miR-21 FLuc reporter, luciferase, 48 h; active = well fitted rising curve with a large enough effect; inconclusive = small, poorly fitted or top-dose-only effect; inactive = no such curve, though single readings can be large or run the other way;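 note: % of control where 0% means no effect; miR-21 action dims this reporter so a rising signal means less miR-21 action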
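HeLa cells stably expressing CMV-driven firefly luciferase with a downstream miR-21 binding sequence, endogenously expressing miR-21, were treated with titrations (up to about 40uM final) for 48 hours at 37 degree Celsius. Luciferase luminescence was read after lysis.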
ALDH1A1 inh – ALDH1A1 (human) enzyme inhibition | AID 1030 | Potency, µM (titrated, usually from 75.3 µM), without a hit: top-dose activity, negative = inhibition, most hits filed as inhibitors | actives 7.3% (n = 220,000) | P00352 | Purified ALDH1A1, NADH fluorescence, propionaldehyde substrate; active = well fitted inhibition curve with a large enough effect, not every such curve was filed as active; inconclusive = small, poorly fitted or top-dose-only effect, or another doubt; inactive = no such curve, though single readings can be large or run the other way;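 also: potency is read from the fitted curve at half-maximal effect; plate controls were no enzyme wells and a reference inhibitor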
Sfp PPTase inh – qHTS Assay for Inhibitors of Bacillus subtilis Sfp phosphopantetheinyl transferase (PPTase). 4'-phosphopantetheinyl transferase ffp (Bacillus subtilis), Q9F4F7. Biochemical Sfp PPTase activity, qHTS. Potency, µM, inactives show max response, negative = inhibition, usual class: inhibitors. hit rate 3.5% among 310,000; active means well fitted inhibition curve with a large enough effect; inconclusive means small, poorly fitted or top-dose-only effect, or another doubt; inactive means no such curve, though single readings can be large or run the other way;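 further: the enzyme is Sfp with the accession as filed and its product quenches rhodamine fluorescence; potency means the concentration at half of the fitted maximal effect; 0% = enzyme reaction without inhibitor and -100% = no enzyme wells; top concentration of the series not given in the record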
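Sfp 15 nM + cpd, 15 min RT; start w/ rhodamine-CoA 5 uM, BHQ-2-YbbR 12.5 uM (final); 50 mM Hepes pH 7.6, 10 mM MgCl2, 0.01% NP-40, 0.01% BSA; read 525/598 nm at 0 and 30 min.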
* hit, by the source's call; u = inconclusive; x = not tested or not shown; [ ] = another dose, or the depositor's remark. Unless noted, calls follow the shape of the dose curve; as a rule, active = well fitted curve in the direction sought with a large enough effect; inconclusive = small, poorly fitted or top-dose-only effect, or another doubt; inactive = no such curve, though single readings can be large; an effect the other way counts as inactive or inconclusive.

compound,Lamin A splicing,G9a block,JMJD2E inh,miR-21 reporter,ALDH1A1 inh,Sfp PPTase inh
COc1cccc(NC(=O)/C=C/c2ccco2)c1,u,35µM*,-16%,-51%,25µM*,35µM*
CC(C)(C)C(=O)Nc1ccc(C(=O)Nc2cccc(Oc3ccc(C(=O)O)c(C(=O)O)c3)c2)cc1,x,45µM*,x,20%,x,16%
COC(=O)c1cccc(NC(=O)C(C)(C)C)c1,x,x,3%,-1%,x,0%
CSc1cccc(NC(=O)/C=C/c2ccccc2)c1,u,-13%[59 µM],-3%,-36%,-3%,15%
COC(=O)c1c(NC(=O)Cc2coc3cc(C)ccc23)sc2c1CCCC2,x,6%[59 µM],x,1%,x,x
CCCc1nc2nc(C)c(NS(=O)(=O)c3ccc(Cl)cc3)c(=O)n2[nH]1,x,-19%,x,0%,x,24%
CCOc1ccccc1NC(=O)NCCCCc1ccccc1,x,83%,x,-1%,x,8%
CN(C)c1ccc(C(=O)Nc2ccc(-c3nc4ccccc4o3)cc2)cc1,x,-1%[59 µM],x,-23%,x,x

Overlap with the part before: three entries, followed by the next part.
compound,Lamin A splicing,G9a block,JMJD2E inh,miR-21 reporter,ALDH1A1 inh,Sfp PPTase inh
CCCc1nc2nc(C)c(NS(=O)(=O)c3ccc(Cl)cc3)c(=O)n2[nH]1,x,-19%,x,0%,x,24%
CCOc1ccccc1NC(=O)NCCCCc1ccccc1,x,83%,x,-1%,x,8%
CN(C)c1ccc(C(=O)Nc2ccc(-c3nc4ccccc4o3)cc2)cc1,x,-1%[59 µM],x,-23%,x,x
Nc1ccccc1Sc1c[nH]c2ccccc12,x,45µM*,x,-32%,x,12%
O=C(O)CSc1c[nH]c2ccccc12,-5%,-45%[59 µM],-4%,-1%,-1%,17%
OCCN(Cc1ccccc1)Cc1ccccc1F,-3%,2.5µM*,u,-6%,-13%,40µM*
OCCN(Cc1ccccc1)Cc1ccccc1Cl,14%,3.5µM*,u,-5%,u,28µM*
OCCN(Cc1ccccc1)Cc1cccc(Cl)c1Cl,6%,u,u,-12%,u,u
Cn1cc(Br)c(C(=O)NNC(=O)Nc2ccccc2C(F)(F)F)n1,u,0%,-3%,-28%,0%,18%
COC(=O)c1cc2sc(Cl)cc2n1Cc1nc(-c2cccc(C)c2)oc1C,8%,u,-3%,2%,-5%,u
COC(=O)c1cc2sc(Cl)cc2n1Cc1nc(-c2ccccc2)oc1C,-3%,-10%,7%,-2%,2%,79µM*
COCC(=O)N1CCC(n2nccc2NC(=O)c2ccccc2OC)CC1,x,25%,x,-15%,x,9%
CCn1c(-c2cc(-c3ccc(OC(C)C)cc3)nc3ccccc23)n[nH]c1=S,14%,28µM*,u,-33%,u,4%
C=CCn1c(-c2cc(-c3ccc(C)cc3)nc3ccccc23)n[nH]c1=S,17%[46 µM],14µM*,-7%,2%,-6%,2%
CCn1c(-c2cc(-c3ccc(C)cc3)nc3ccccc23)n[nH]c1=S,u,8.9µM*,-13%,-20%,u,-9%
O=C(c1c(F)cccc1F)N1CCC(O)(c2ccc(F)cc2)CC1,x,u,x,-2%,x,9%
COc1ccc(C(=O)NCC(=O)OCC(=O)c2cc(OC)c(OC)c(OC)c2)cc1OC,-10%,50µM*,-9%,2%,7%,3%
CC(C)(C)C(=O)OCOP(=O)(OCOC(=O)C(C)(C)C)C(C)(Oc1ccc(O)cc1)P(=O)(OCOC(=O)C(C)(C)C)OCOC(=O)C(C)(C)C,x,3.5µM*,x,x,u,u
CC(Oc1ccc(O)cc1)(P(=O)(O)O)P(=O)(O)O,x,x,1.6µM*,x,0%,-8%
CC(C)(C)C(=O)COC(=O)c1ccc(O)cc1,-10%,12%[59 µM],1%,-11%,8%,9%
Oc1ccc(Oc2ccc(Oc3ccc(O)cc3)cc2)cc1,x,11%[0.501 µM],x,-20%,x,1%
O=C1COc2ccc(-c3cc(-c4ccc(F)cc4)c4c(n3)-c3cc(Cl)ccc3OC4)cc2N1,x,5%[59 µM],x,-5%,x,x
O=c1[nH][nH]c(=S)n1C1CCCCC1,x,1.1µM*,2.8µM*,0%,1.3µM*,2.8µM*
COCCCN(C(=S)NC(=O)C(C)(C)C)c1c(N)n(Cc2ccccc2)c(=O)[nH]c1=O,x,-6%,-17%,0%,28µM*,-29%
CCCN(C(=O)c1cc(CC)c(C)s1)c1c(N)n(Cc2ccccc2)c(=O)[nH]c1=O,x,7%[0.501 µM],x,x,x,x

An excerpt from above in order of their number in miR-21 reporter, lowest first:
compound,Lamin A splicing,G9a block,JMJD2E inh,miR-21 reporter,ALDH1A1 inh,Sfp PPTase inh
CCn1c(-c2cc(-c3ccc(C)cc3)nc3ccccc23)n[nH]c1=S,u,8.9µM*,-13%,-20%,u,-9%
O=C(c1c(F)cccc1F)N1CCC(O)(c2ccc(F)cc2)CC1,x,u,x,-2%,x,9%
COc1ccc(C(=O)NCC(=O)OCC(=O)c2cc(OC)c(OC)c(OC)c2)cc1OC,-10%,50µM*,-9%,2%,7%,3%

Source: PubChem
